Bioassay records as filed in PubChem.
This is a sample that favours compounds with a hit; in the whole collection about 1.3% have one here.
ARNT TACC3 PPI: disruptors of human ARNT/TACC3 interaction. inhibition, % at 9.99 µM. 390,000 compounds, 0.66% hits. Q9Y6A5. AlphaScreen His-ARNT PAS-B/GST-TACC3 binding, luminescence; TACC3 fragment carries E629A point mutation;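 active = mean inhibition of replicates at least 50% and at least half of replicates each reaching 50%; inconclusive = half or more replicates reach 50% but mean below 50%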;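 also: 0% = complete ARNT plus TACC3 wells and 100% = ARNT alone without TACC3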
AF4-AF9 inh: MLL-AF4/AF9 protein interaction inhibition; P42568; AlphaScreen, biotin-AF4 peptide binding to FLAG-AF9; inhibition, % at 10 µM; 350,000 compounds, 0.47% hits;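 active = every replicate reaching a set inhibition limit, whatever the replicate mean, cut at about 25% in these data; inconclusive = mean inhibition reaches that limit but some replicates miss it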;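 also: 0% = plate neutral control median and 100% = total signal loss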
E-selectin induc: induces E-selectin expression in human endothelial cells; HUVEC E-selectin immunofluorescence imaging; normalized: neutral wells 0, TNF-alpha wells 100; activation, % at 7.58 µM; 260,000 compounds, 0.37% hits;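 active = mean E-selectin-positive cell signal at least 10% of the positive control, reached in at least 60% of replicates, without over 20% cell loss; inconclusive = no rule given, readout overlaps actives, possibly toxicity-flagged; inactive = the rest, including those meeting only one limit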
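System: HUVEC / Compound: single concentration / Signal: immunofluorescence imaging / Read-out: percent E-selectin-positive cells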
Yeast UUG start: modulators of yeast start codon fidelity, primary screen, whole organism, S. cerevisiae, single point, plate reader. S. cerevisiae UUG-firefly luciferase reporter, luminescence/redox ratio. activity score, % at 18.7 µM. 350,000 tested, 0.13% active;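 active = replicate mean at a twofold rise or more, about +100% in these data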;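 also: firefly luciferase made from a UUG start codon reports start codon fidelity; reporter light over untreated wells divided by growth signal over untreated wells; some hits fall short of that in this replicate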
ERAP1 HTS inh: blocks human ERAP1 aminopeptidase activity; 340,000 compounds, 0.15% hits; inhibition, % at 10.7 µM; Q9NZ08; recombinant ERAP1, Leu-AMC fluorescence, 60 min;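 active = mean replicate inhibition of at least 30%, or all replicates individually reaching that 30% level; inactive = mean below 30% and not every replicate reaching it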;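 also: 0% = neutral control wells and 100% = L-leucinethiol positive control wells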
S100A4 MyoIIA: S100A4-myosin IIA interaction inhibition; P26447; S100A4/TAMRA-MyoIIA peptide fluorescence polarization; inhibition, % at 10.7 µM; 360,000 compounds, 0.14% hits;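 active = mean inhibition of at least 70% across replicates, with every replicate also reaching that level; inconclusive = mean inhibition reaches 70% but some replicates fall short; inactive = mean inhibition below 70%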
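Material: S100A4 monomer (human). Medium: Calcium-containing HEPES buffer, pH 7.2. Probe or stimulus: labelled myosin peptide probe, 5 nM. Compound dosing: one concentration per compound. Timing: polarization read 5 min after assay mix addition, stable 5–60 min. Benchmarks: DMSO as neutral control, TFP as positive control.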
An asterisk follows results filed as active; u = inconclusive; x = no result given; ! = a repeat was not active.

Screens by letter: A = ARNT TACC3 PPI; B = AF4-AF9 inh; C = E-selectin induc; D = Yeast UUG start; E = ERAP1 HTS inh; F = S100A4 MyoIIA
COc1ccccc1CNC(=O)C[C@@H]1C[C@H]2c3cc(NC(=O)CC4CC4)ccc3O[C@H]2[C@@H](CO)O1
  A: -0.9 | B: x | C: -0.2 | D: -8.0 | E: x | F: x
COc1ccccc1CNC(=O)CSc1ccsc1[N+](=O)[O-]
  A: x | B: -2.6 | C: -0.1 | D: x | E: -1.5 | F: -16.0
O=C(CSc1ccsc1[N+](=O)[O-])NCc1ccccc1
  A: -7.4 | B: -2.7 | C: 0.3 | D: -4.0 | E: 0.1 | F: 104.1*
CC(C)NC(=O)N(C)C[C@H]1Oc2ccc(NC(=O)Cc3cn(C)c4ccccc34)cc2C(=O)N([C@@H](C)CO)C[C@@H]1C
  A: -3.8 | B: -6.8 | C: 2.3 | D: 10.0 | E: 1.2 | F: 33.6
O=C(Nc1cc(C(F)(F)F)cc(C(F)(F)F)c1)Nc1cnn(-c2ccc([N+](=O)[O-])cc2)c1C(F)(F)F
  A: -0.8 | B: 0.9 | C: 73.9* | D: -6.9 | E: x | F: 6.9
COc1ccc(C)cc1S(=O)(=O)N(C)CC(=O)NC1CCCCC1
  A: -5.8 | B: x | C: x | D: -8.5 | E: x | F: x
COc1ccc(C)cc1S(=O)(=O)N(CC(=O)NC1CCCC1)c1ccc(F)cc1
  A: 46.4* | B: 0.8 | C: -0.7 | D: 3.4 | E: -1.1 | F: -5.1
CN1CCN(C(=O)C[C@H]2C[C@H]3c4cc(NC(=O)Nc5ccccc5)ccc4O[C@H]3[C@@H](CO)O2)CC1
  A: -5.2 | B: x | C: 0.0 | D: 3.3 | E: x | F: x
Cc1ccc(C(=O)c2oc3ccc(Cl)cc3c2NC(=O)CN2CCN(C)CC2)cc1
  A: 8.3 | B: 31.2* | C: -0.2 | D: 12.9 | E: 2.7 | F: -3.2
CCOC(=O)c1oc2ccc(OC)cc2c1NC(=O)CN1CCN(C)CC1
  A: 3.6 | B: x | C: x | D: x | E: x | F: x
CN1C(=O)c2cc(NC(=O)Cc3ccccc3)ccc2OC[C@H]2O[C@@H](CC(=O)O)CC[C@H]21
  A: -7.1 | B: 0.3 | C: 0.1 | D: 0.2 | E: -0.7 | F: -1.5
CCCc1cc(C(=O)N2CCN(C(c3ccccc3)c3ccccc3)CC2)no1
  A: -1.0 | B: 49.6* | C: 4.3 | D: -10.1 | E: 7.8 | F: -11.9
Cc1cc(C(=O)N2CCN(C(c3ccccc3)c3ccccc3)CC2)no1
  A: -11.9 | B: x | C: x | D: x | E: x | F: x
CCC(=O)N(C)C[C@@H]1Oc2cc(C#Cc3ccncc3)ccc2S(=O)(=O)N([C@@H](C)CO)C[C@H]1C
  A: 0.3 | B: -2.1 | C: 2.6 | D: -14.2 | E: -0.1 | F: 11.8
C[C@@H]1CCCCO[C@@H](CN(C)C(=O)Nc2ccc3c(c2)OCO3)[C@H](C)CN([C@@H](C)CO)C(=O)c2cc(NC(=O)Nc3ccc(F)cc3)ccc2O1
  A: -3.0 | B: -3.5 | C: 0.0 | D: 2.1 | E: -2.0 | F: 6.0
C[C@H]1CCCCO[C@H](CN(C)C(=O)Nc2ccc(F)cc2)[C@@H](C)CN([C@@H](C)CO)C(=O)c2cc(NC(=O)Nc3ccc4c(c3)OCO4)ccc2O1
  A: 19.5 | B: 32.3*! | C: x | D: 5.5 | E: 2.8 | F: -9.1
C[C@@H]1CN([C@H](C)CO)C(=O)c2cc(NC(=O)Nc3ccc4c(c3)OCO4)ccc2O[C@@H](C)CCCCO[C@H]1CN(C)Cc1ccc2c(c1)OCO2
  A: 14.1 | B: 38.7* | C: x | D: 16.7 | E: -3.5 | F: 8.0
COc1ccc(CN(C)C[C@H]2OCCCC[C@@H](C)Oc3ccc(NC(=O)Nc4ccc5c(c4)OCO5)cc3C(=O)N([C@@H](C)CO)C[C@@H]2C)cc1
  A: 18.3 | B: 27.7* | C: u | D: 11.7 | E: -1.6 | F: 4.1
C[C@H](CO)N1C[C@H](C)[C@H](CN(C)Cc2ccc3c(c2)OCO3)OCCCC[C@H](C)Oc2ccc(NC(=O)Nc3ccc4c(c3)OCO4)cc2C1=O
  A: 11.6 | B: 20.1 | C: x | D: 13.1 | E: -3.0 | F: -1.9
C[C@@H]1CN([C@H](C)CO)C(=O)c2cc(NC(=O)NC3CCCCC3)ccc2O[C@H]1CN(C)S(=O)(=O)c1ccc(Cl)cc1
  A: -5.4 | B: -2.7 | C: 141.0* | D: -8.9 | E: -0.8 | F: 3.1
CO[C@H]1CN(C)C(=O)c2cc(NC(=O)NC(C)C)ccc2OC[C@@H](C)N(CCC(F)(F)F)C[C@@H]1C
  A: -1.3 | B: x | C: 0.1 | D: x | E: x | F: x
C[C@@H]1CCCCO[C@@H](CN(C)Cc2ccccc2)[C@H](C)CN([C@H](C)CO)C(=O)c2cc(NC(=O)Nc3ccc4c(c3)OCO4)ccc2O1
  A: 17.0 | B: 30.9* | C: 0.0 | D: 0.6 | E: -0.1 | F: -12.9
C[C@H]1CN([C@@H](C)CO)C(=O)c2cc(NC(=O)NC3CCCCC3)ccc2O[C@@H]1CN(C)Cc1ccccc1
  A: -7.0 | B: 1.6 | C: 0.5 | D: 6.4 | E: -2.4 | F: 3.8
C[C@@H]1CN([C@@H](C)CO)C(=O)c2cc(NC(=O)Nc3ccc(F)cc3)ccc2O[C@@H](C)CCCCO[C@H]1CN(C)Cc1ccc(Cl)c(Cl)c1
  A: 48.1* | B: 0.2 | C: 0.0 | D: -6.3 | E: 0.9 | F: 2.0
C[C@H]1CN([C@@H](C)CO)C(=O)c2cc(NC(=O)NC3CCCCC3)ccc2O[C@H]1CN(C)Cc1ccccc1
  A: -2.5 | B: 32.6* | C: 0.4 | D: 14.5 | E: 2.9 | F: 22.4
C[C@H](CO)N1C[C@H](C)[C@@H](CN(C)C(=O)c2ccncc2)OCCCC[C@H](C)Oc2ccc(NC(=O)Cc3ccccc3)cc2C1=O
  A: active | B: 0.3 | C: x | D: 21.3 | E: -4.6 | F: 7.2
CC(C)NC(=O)Nc1ccc2c(c1)C(=O)N([C@@H](C)CO)C[C@H](C)[C@@H](CN(C)C(=O)Nc1cccc3ccccc13)O2
  A: 5.0 | B: -2.4 | C: x | D: x | E: 1.8 | F: -7.2
CC(C)C#Cc1cnc2c(c1)C(=O)N([C@H](C)CO)C[C@@H](C)[C@H](CN(C)C(=O)C1CCC1)O2
  A: -8.3 | B: -2.1 | C: 0.1 | D: 6.8 | E: 0.2 | F: 10.6
Cc1ccc(N2C(=O)[C@@H]3[C@H](C2=O)C2c4ccccc4C=CN2[C@@H]3C(=O)c2ccco2)cc1 (stereo partly drawn)
  A: 21.5 | B: x | C: x | D: -4.5 | E: x | F: x
Cc1ccc(N2C(=O)[C@@H]3[C@H](C2=O)C2c4ccccc4C=CN2[C@@H]3C(=O)c2ccco2)c(C)c1 (stereo partly drawn)
  A: 45.1* | B: x | C: x | D: -56.7 | E: x | F: x
COc1cccc(C#Cc2ccc3c(c2)[C@H]2[C@H](CCN2C(=O)Cc2ccccc2)[C@H](CO)N3)c1
  A: x | B: -4.3 | C: -0.6 | D: x | E: -3.1 | F: 6.5
Cc1[nH]c2ccccc2c1/C=N/Nc1ccccn1
  A: x | B: 26.3* | C: -0.4 | D: x | E: 4.3 | F: 2.2
Cc1[nH]c2ccccc2c1/C=N/Nc1nncn1N
  A: 15.7 | B: -3.1 | C: 0.0 | D: x | E: -1.4 | F: -0.9
CO[C@H]1CN(C)C(=O)c2ccc(NC(=O)CC(F)(F)F)cc2OC[C@H](C)NC[C@H]1C
  A: x | B: -3.7 | C: -0.2 | D: x | E: -0.2 | F: -10.6
CCOC(=O)C1=C(C)NC(=O)NC1c1cn(-c2ccccc2)nc1-c1cccs1 (stereo not drawn)
  A: 0.8 | B: x | C: x | D: -4.1 | E: x | F: x
CCOC(=O)C1=C(C)NC(C)=C(C(=O)OCC)C1c1cn(-c2ccccc2)nc1-c1ccco1
  A: 61.8* | B: x | C: x | D: x | E: x | F: x
CCN(C(=O)COC(=O)CNC(=O)c1cccs1)c1c(N)n(Cc2ccccc2)c(=O)[nH]c1=O
  A: 26.6 | B: 1.3 | C: x | D: -24.0 | E: 6.9 | F: -7.4
COCCN(C(=O)COC(=O)CNC(=O)c1cccs1)c1c(N)n(Cc2ccccc2)c(=O)[nH]c1=O
  A: 0.3 | B: -1.8 | C: -1.6 | D: x | E: 35.3* | F: -2.3
